TDP1 block = blocks human tyrosyl-DNA phosphodiesterase 1; AID 485290; Q9NUW8; recombinant TDP1, AlphaScreen DNA substrate cleavage; Potency, µM (highest dose often 130 µM), without a hit: top-dose activity change, negative = inhibition, usual class: inhibitors; hit rate 0.28% among 350,000; note: potency is the fitted concentration of half-maximal effect; % is set by controls: 0 for no effect and ±100 for the full control effect; nearly all actives have a fitted effect of over 40% in size
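Enzyme-compound mixtures sat 15 min at room temperature, followed by a 5 min reaction with 15 nM final substrate and 10 min with AlphaScreen beads. Recombinant human Tdp1 was used at 1 nM final.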
miR-21 FLuc = raises the signal of a miR-21 reporter | HeLa miR-21 FLuc reporter, luciferase, 48 h | Potency, µM (highest dose often 38.3 µM), without a hit: at the top dose reporter change, positive = more light | 340,000 tested, under 10 active; active = well fitted rising curve with a large enough effect; inconclusive = small, poorly fitted or top-dose-only effect; inactive = no such curve, though single readings can be large or run the other way;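 note: % of control where 0% means no effect; miR-21 action dims this reporter so a rising signal means less miR-21 action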
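HeLa cells stably expressing CMV-driven firefly luciferase with a downstream miR-21 binding sequence, endogenously expressing miR-21, were treated with titrations (up to about 40uM final) for 48 hours at 37 degree Celsius. Luciferase luminescence was read after lysis.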
DT40 TDP1 no CPT = qHTS for Inhibitors of human tyrosyl-DNA phosphodiesterase 1 (TDP1): qHTS in cells in absence of CPT. hit rate 15% among 420,000. Potency, µM (highest dose often 46.2 µM), without a hit: at the top dose activity change, negative = growth inhibition, usual class: inhibitors. DT40 Tdp1-/- hTDP1 cells, no CPT, ATP luminescence, 48 h; note: potency is the fitted concentration of half-maximal effect; % is set by controls: 0 for no effect and ±100 for the full control effect; nearly all actives have a fitted effect of over 55% in size
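Cells were dispensed at 400 per well, compounds added by pin tool, plates incubated ≥48 hr at 37 °C, then CellTiter-Glo added for 30 min at room temperature before luminescence reading. Line: DT40 Tdp1-/- complemented with hTDP1; camptothecin omitted.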
TDP1 cell CPT = DT40-hTDP1 cell growth loss with CPT | chicken DT40 Tdp1-/-;hTDP1 cells + 20 nM CPT, ATP luminescence, 48 h | Potency, µM (titrated, usually from 46.2 µM), without a hit: at the highest dose activity change, negative = growth inhibition, hits mostly inhibitors | hit rate 12% among 420,000; note: potency is the fitted concentration of half-maximal effect; % is set by controls: 0 for no effect and ±100 for the full control effect; nearly all actives have a fitted effect of over 55% in size
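Chicken DT40 Tdp1-/- cells stably complemented with human TDP1 were seeded at 400 cells/well in medium containing 20 nM camptothecin, exposed to pin-transferred compounds, and grown at 37 °C for at least 48 hr. Viability was read as ATP luminescence.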
uPA generation = cell surface uPA generation inhibition; cell surface uPA generation assay, qHTS; Potency, µM (doses to about 38.3 µM), inactives show at the highest dose activity change, negative = inhibition, usual class: inhibitors; hit rate 0.31% among 330,000; AID 540303; active = well fitted inhibition curve with a large enough effect; inconclusive = small, poorly fitted or top-dose-only effect; inactive = no such curve, though single readings can be large or run the other way; tested in mouse RAW 264.7 cells; note: potency is the fitted concentration of half-maximal effect; % is set by controls: 0 for no effect and ±100 for the full control effect; nearly all actives have a fitted effect of over 55% in size
An asterisk follows results filed as active; ? = inconclusive; . = not tested or not shown. Rows were chosen to be rich in hits. Some 16% of all compounds tested hit in one or more screens of this group. Unless noted, calls come from the whole dose curve; as a rule, active = well fitted curve in the direction sought with a large enough effect; inconclusive = small, poorly fitted or top-dose-only effect, or another doubt; inactive = no such curve, though single readings can be large; an effect the other way counts as inactive or inconclusive.

SMILES	TDP1 block	miR-21 FLuc	DT40 TDP1 no CPT	TDP1 cell CPT	uPA generation
CC1CCCN(S(=O)(=O)c2cccc(C(=O)OCC(=O)N(C)Cc3c(F)cccc3Cl)c2)C1 (configuration not stated)	?	.	1%	0%	-1%
O=[N+]([O-])c1ccc2c(c1)C(O)n1nc(-c3ccc(Cl)cc3Cl)nc1S2 (configuration not stated)	6%	-8%	5%	-8%	-3%
CC(C)(C)OC(=O)N1CCC[C@H]1C(=O)Nc1ccc(S(=O)(=O)C(F)F)cc1	.	-2%	?	13µM*	-4%
CC(C)(C)OC(=O)N1CCC[C@H]1C(=O)Nc1ccc(Br)cc1	.	2%	-14%	-7%	2%
CC(NC(=O)C1CCCN1C(=O)OC(C)(C)C)C(=O)OCc1ccccc1 (configuration not stated)	.	.	?	23µM*	.
COc1ccc(C(=O)C[C@@H]2OC[C@H](C)N2S(=O)(=O)c2ccc(C)cc2)cc1OC	.	.	18µM*	?	.
COC(=O)C[C@@H]1OC[C@H](C)N1S(=O)(=O)c1ccc(C)cc1	.	.	0%	-3%	.
Cc1ccc(S(=O)(=O)N2[C@@H](CO)CO[C@H]2CC(=O)c2ccc(F)cc2)cc1	.	.	-8%	4%	.
Cc1ccc(S(=O)(=O)N2[C@H](CC(=O)c3cccs3)OC[C@@H]2C)cc1	.	.	23µM*	?	.
COc1cc(C(=O)NNC(=O)Nc2ccc([N+](=O)[O-])cc2)cc(OC)c1OC	0%	-7%	-19%	6%	2%
Cc1ccc(NC(=O)CSc2ncnc3ccccc23)cc1S(=O)(=O)N1CCCCCC1	8%	1%	?	26µM*	-7%
O=C(CSc1ncnc2ccccc12)Nc1cc(S(=O)(=O)N2CCCCC2)ccc1Cl	5%	1%	26µM*	?	-10%
O=C(NCc1ccc(F)cc1)C(=O)NCC1OCCN1C(=O)c1ccc(Cl)cc1 (configuration not stated)	1%	-10%	?	-1%	-23%
CC1=C(C(=O)Nc2ccccc2)C(c2cccs2)n2nc(SCc3ccccc3)nc2N1 (configuration not stated)	3%	-23%	?	-19%	.
COc1cccc(CSc2nc3n(n2)C(c2cccs2)C(C(=O)Nc2ccccc2C)=C(C)N3)c1 (configuration not stated)	-3%	3%	13µM*	21µM*	.
CC1=C(C(=O)Nc2ccc(C)cc2C)C(c2cccs2)n2nc(SCc3cccc(C)c3)nc2N1 (configuration not stated)	-5%	-1%	18µM*	21µM*	.
COc1cccc(-c2nc3n(n2)C(c2cccs2)C(C(=O)Nc2cccnc2)=C(C)N3)c1 (configuration not stated)	9%	-3%	?	15µM*	-19%
COc1ccccc1NC(=O)C1=C(C)Nc2nc(SCc3ccccc3)nn2C1c1cccs1 (configuration not stated)	6%	18%	15µM*	-101%	.
COc1ccc(-c2nc3n(n2)C(c2ccccc2)C(C(=O)Nc2cccnc2)=C(C)N3)cc1 (configuration not stated)	2%	5%	-23%	-27%	.
CSc1nc2n(n1)C(c1cccc(F)c1)C(C(=O)Nc1ccc(C)cc1C)=C(C)N2 (configuration not stated)	4%	2%	-20%	-3%	-2%
C=C1C(O)[C@@H]2O[C@]3(CC[C@H](/C=C/C(C)[C@@H]4CC(C)=CC5(O[C@H](C[C@@](C)(O)CO)CCC5O)O4)O3)CC[C@H]2O[C@@H]1C(O)CC(C)[C@H]1OC2(CCCCO2)CCC1C (some centres not stated)	0%	.	3.3µM*	1.5µM*	?

Molecules listed so far containing a tert-butyl group (3):
SMILES	TDP1 block	miR-21 FLuc	DT40 TDP1 no CPT	TDP1 cell CPT	uPA generation
CC(C)(C)OC(=O)N1CCC[C@H]1C(=O)Nc1ccc(S(=O)(=O)C(F)F)cc1	.	-2%	?	13µM*	-4%
CC(C)(C)OC(=O)N1CCC[C@H]1C(=O)Nc1ccc(Br)cc1	.	2%	-14%	-7%	2%
CC(NC(=O)C1CCCN1C(=O)OC(C)(C)C)C(=O)OCc1ccccc1 (configuration not stated)	.	.	?	23µM*	.

Assay outcomes deposited in PubChem by National Center for Advancing Translational Sciences (NCATS).
